# Apparent affinities of Ab-14 variants for a coronavirus HR2 peptide

The measurements come from Li et al. 2023 (doi:10.1038/s41467-023-39022-2) through the FLAb antibody collection.

All variants were tested on one target, the spike HR2 peptide PDVDLGDISGINAS (SARS-CoV-2).

The variants keep the light chain, the linker and the frameworks of Ab-14 (scFv order VH, a (GGGGS)3 linker, VL).
VH: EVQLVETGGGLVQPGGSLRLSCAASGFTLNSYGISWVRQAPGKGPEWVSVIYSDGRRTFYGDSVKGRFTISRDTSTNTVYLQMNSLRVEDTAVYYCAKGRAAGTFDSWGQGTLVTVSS
VL: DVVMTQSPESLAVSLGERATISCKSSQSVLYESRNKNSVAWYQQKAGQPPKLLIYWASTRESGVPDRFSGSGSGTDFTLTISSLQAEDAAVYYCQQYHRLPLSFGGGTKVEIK

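The starting antibody came from a phage panning campaign against this peptide. Designed CDR sequences, proposed from the first random library and measured here. Several design methods are mixed in this list. In AlphaSeq, yeast of one mating type display the scFv and yeast of the other type display the target. Mating (16 h, 30 °C) was followed by selection of diploids and sequencing of their barcodes. Read counts were normalised to the haploid input and turned into Kd by a linear fit to BCL2-family pairs of known affinity, for each replicate. There are six technical replicates.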

The whole VH of each variant is written out. Kd is apparent (estimated from mating counts) and averaged on the log scale over replicates with a signal. Smaller is tighter. An entry "not detected" has no value in the source: the pair was not observed among the diploids in any replicate. This suggests poor binding but is not conclusive. The authors averaged sequences with at least three values out of six and counted those with two or fewer as poor binders.

VH	apparent Kd	replicates with signal	empty controls
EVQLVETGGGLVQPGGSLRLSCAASGFDLNSYGISWVRQAPGKGPEWVSVIYSDGRRTKYGDSVKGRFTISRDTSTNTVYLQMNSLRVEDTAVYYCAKGRAAGWFNSWGQGTLVTVSS	not detected	0/6	0/18
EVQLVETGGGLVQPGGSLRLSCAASGFSLNEYGISWVRQAPGKGPEWVSVIYADGRRTFYTDSVKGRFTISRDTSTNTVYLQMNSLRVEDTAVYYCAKGTNAGTFDMWGQGTLVTVSS	580 pM	6/6	0/18
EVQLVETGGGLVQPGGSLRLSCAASGFTLNSYGISWVRQAPGKGPEWVSVIYSDGRRTEYGDAVKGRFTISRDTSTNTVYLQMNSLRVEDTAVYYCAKGRAAGTFDSWGQGTLVTVSS	260 nM	5/6	0/18
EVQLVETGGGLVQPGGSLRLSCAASGFELNSYGISWVRQAPGKGPEWVSVIYSDGMRTFYSDSVKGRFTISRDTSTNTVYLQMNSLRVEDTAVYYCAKGRTAGTFDSWGQGTLVTVSS	15 nM	6/6	0/18
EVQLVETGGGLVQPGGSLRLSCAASGFTLNSYGISWVRQAPGKGPEWVSVIYSDGRRTFYGDSVKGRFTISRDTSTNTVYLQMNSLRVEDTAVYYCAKGPVKGTFRSWGQGTLVTVSS	330 nM	3/6	0/18
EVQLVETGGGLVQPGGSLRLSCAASGFDLNSYGISWVRQAPGKGPEWVSVIYSDGRRTFYGDPVKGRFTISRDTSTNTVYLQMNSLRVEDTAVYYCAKGRTAGTFDDWGQGTLVTVSS	30 nM	5/6	0/18
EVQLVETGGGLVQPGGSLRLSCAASGFDLDEYGISWVRQAPGKGPEWVSVIYADGMRTAYTDSVKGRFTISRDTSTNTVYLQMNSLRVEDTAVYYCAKGNVAGTFDIWGQGTLVTVSS	200 pM	6/6	1/18
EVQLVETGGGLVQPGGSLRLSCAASGFSLNSYGISWVRQAPGKGPEWVSVIYSDGRRTFYDDRVKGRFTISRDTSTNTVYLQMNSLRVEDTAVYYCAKGRTAGTFDSWGQGTLVTVSS	1.7 nM	6/6	0/18
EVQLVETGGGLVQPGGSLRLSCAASGFDLEKYGIHWVRQAPGKGPEWVSVIYADGIRASYSDSVKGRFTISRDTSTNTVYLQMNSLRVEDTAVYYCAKGDLSGTLYVWGQGTLVTVSS	650 pM	6/6	0/18
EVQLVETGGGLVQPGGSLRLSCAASGFDLDEYGISWVRQAPGKGPEWVSVIYADGMRTAYTDSVKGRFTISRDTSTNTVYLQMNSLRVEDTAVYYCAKGNTAGTFDLWGQGTLVTVSS	500 pM	6/6	0/18
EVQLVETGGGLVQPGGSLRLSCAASGFTLNEYGISWVRQAPGKGPEWVSVIYSDGRRTFYGDSVKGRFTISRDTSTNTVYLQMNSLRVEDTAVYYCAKGSAAGTFDLWGQGTLVTVSS	1.1 nM	6/6	2/18
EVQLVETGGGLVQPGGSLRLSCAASGFSLNTYGISWVRQAPGKGPEWVSVIYSDGRRTFYKDSVKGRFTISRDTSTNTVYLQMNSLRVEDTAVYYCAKGEAAGTFDSWGQGTLVTVSS	2.2 nM	6/6	1/18
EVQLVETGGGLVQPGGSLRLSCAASGFDLNEYGISWVRQAPGKGPEWVSVIYADGRRKVYADSVKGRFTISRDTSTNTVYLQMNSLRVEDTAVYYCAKGNTAGTFDVWGQGTLVTVSS	1.0 nM	6/6	1/18
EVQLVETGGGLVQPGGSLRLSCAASGFTINNYGISWVRQAPGKGPEWVSVIYSDMRRTFYGDSVKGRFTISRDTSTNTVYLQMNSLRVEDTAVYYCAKGRDAGTFDSWGQGTLVTVSS	not detected	0/6	0/18
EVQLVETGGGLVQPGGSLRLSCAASGFSLNDYGISWVRQAPGKGPEWVSVIYSDGRRTFYGDSVKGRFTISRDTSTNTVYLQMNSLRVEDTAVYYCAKGRTAGTFDLWGQGTLVTVSS	710 pM	6/6	0/18
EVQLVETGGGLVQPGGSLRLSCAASGFDLNEYGISWVRQAPGKGPEWVSVIYADGRRTFYSDSVKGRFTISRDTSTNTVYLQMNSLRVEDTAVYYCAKGQLAGTFDVWGQGTLVTVSS	240 pM	6/6	0/18
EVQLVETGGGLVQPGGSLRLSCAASGFTLNNYGISWVRQAPGKGPEWVSVIYSDGRRTFYSDSVKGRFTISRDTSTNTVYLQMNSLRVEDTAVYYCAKGQLAGTFDSWGQGTLVTVSS	2.8 nM	6/6	0/18
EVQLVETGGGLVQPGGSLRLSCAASGFDLNEYGISWVRQAPGKGPEWVSVIYADGRRTFYADSVKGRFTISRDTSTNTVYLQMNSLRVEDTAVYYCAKGNTAGTFLLWGQGTLVTVSS	27 pM	6/6	0/18
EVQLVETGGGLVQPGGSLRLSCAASGFDLNEYGISWVRQAPGKGPEWVSVIYADGRRTAYADNVKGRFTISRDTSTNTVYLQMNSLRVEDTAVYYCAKGEVAGTFDTWGQGTLVTVSS	210 pM	6/6	0/18
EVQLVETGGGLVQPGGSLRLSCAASGFTLESYGISWVRQAPGKGPEWVSVIYSDGRRTFYGDSVKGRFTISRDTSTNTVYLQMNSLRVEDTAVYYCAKGQTAGTFDTWGQGTLVTVSS	910 pM	6/6	0/18
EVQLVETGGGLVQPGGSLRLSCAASGFDLDEYGISWVRQAPGKGPEWVSVIYADGVRTAYTDSVKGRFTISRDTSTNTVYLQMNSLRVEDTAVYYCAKGNVAGTFDLWGQGTLVTVSS	490 pM	6/6	0/18
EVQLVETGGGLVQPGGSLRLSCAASGFQLNSYGISWVRQAPGKGPEWVSVIYSDGRRTFYTDSVKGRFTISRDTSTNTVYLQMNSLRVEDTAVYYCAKGHAAGTFDSWGQGTLVTVSS	15 nM	6/6	0/18

The first 2 variants above that were never detected:

VH	apparent Kd	replicates with signal	empty controls
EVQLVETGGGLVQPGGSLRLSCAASGFDLNSYGISWVRQAPGKGPEWVSVIYSDGRRTKYGDSVKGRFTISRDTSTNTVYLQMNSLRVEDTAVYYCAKGRAAGWFNSWGQGTLVTVSS	not detected	0/6	0/18
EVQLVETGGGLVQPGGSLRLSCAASGFTINNYGISWVRQAPGKGPEWVSVIYSDMRRTFYGDSVKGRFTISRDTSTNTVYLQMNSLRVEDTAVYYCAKGRDAGTFDSWGQGTLVTVSS	not detected	0/6	0/18

Nonspecific signal, from three strains lacking the peptide, appeared in 1% of pairings of all heavy chain designs, centred on 120 nM (5% of these signals below 7.0 nM); values are not corrected for it. The control count says in how many pairings with the empty strains this scFv gave a signal. A sequence measured in both rounds can read differently, since the two assays cover different ranges. Of ten entries with the parent sequence, four were seen in most replicates (averages 2.2 nM to 240 nM), three in one and three in none, so single entries are noisy.